## Ab-14 heavy chain CDR variants: yeast mating affinities

The measurements come from Li et al. 2023 (doi:10.1038/s41467-023-39022-2) through the FLAb antibody collection.

All variants were tested on one target, the spike HR2 peptide PDVDLGDISGINAS (SARS-CoV-2).

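The parent was found by panning a naive human phage display library on the peptide. Designed CDR sequences, proposed from the first random library and measured here. Several design methods are mixed in this list. Affinity was read by AlphaSeq, a pooled yeast mating assay with surface-displayed partners. Binding brings cells together so that they mate, and sequencing counts the barcode pairs among the diploids. Read counts were normalised to the haploid input and turned into Kd by a linear fit to BCL2-family pairs of known affinity, for each replicate. Each pool was mated in six replicate cultures.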

Each scFv is VH, three GGGGS repeats, VL, as in the parent Ab-14, and differs from it in the CDRs of the heavy chain only.
VH: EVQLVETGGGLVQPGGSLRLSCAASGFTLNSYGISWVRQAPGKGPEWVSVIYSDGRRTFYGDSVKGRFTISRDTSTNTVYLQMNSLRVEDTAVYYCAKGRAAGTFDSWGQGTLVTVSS
VL: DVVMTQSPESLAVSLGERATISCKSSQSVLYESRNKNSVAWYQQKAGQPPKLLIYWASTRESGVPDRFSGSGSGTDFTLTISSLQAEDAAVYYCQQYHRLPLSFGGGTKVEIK

Each variant is given by its three heavy chain CDRs, as the data file delimits them; those of the parent are GFTLNSYGIS, VIYSDGRRTFYGDSVK, GRAAGTFDS.
The read-out is the apparent dissociation constant on a log10 scale (nM): the lower, the stronger.
A mean of the replicates is given; it leaves out those without a signal.
An entry "nd" has no value in the source: the pair was not observed among the diploids in any replicate. This suggests poor binding but is not conclusive.
Three control strains display no target. For all heavy chain designs, 1% of the pairings with them gave a signal, with a median of 2.08 and one signal in twenty below 0.84, so weak values seen in few replicates may be background.

With GFDLDEYGIS | VIYADGMRTAYADKVK | GNVAGTFDV the result was -0.40 (6 of 6 replicates).
With GFNLDEVGIS | VIYADGSRVAYVDNVK | GTVDTVGFV the result was nd (0 of 6 replicates).
With GFDLNEYGIS | VIYADGRRTFYADKVK | GEFAGTFNV the result was 0.12 (6 of 6 replicates).
With GFTLNSYGIS | VIYSDGRRTFYSDSVK | GRAAGLFDS the result was 2.63 (3 of 6 replicates).
With GFSLNSYGIS | VIYSDGRRTFYGDSVK | GSAAGTFDN the result was 0.82 (6 of 6 replicates).
With GKDLEEYGIS | VIYADGRRSDYTDNVK | GHNGNIFMS the result was nd (0 of 6 replicates).
With GFDLNEYGIS | VIYADGQRTAYADNVK | GENAGTFDI the result was -0.16 (6 of 6 replicates).
With GFRFSEYGIS | VIYSDGRRTFYGDSVK | GRAAGTFDQ the result was 1.46 (5 of 6 replicates).
With GFTLNQYGIS | VIYSDGRRTFYSDSVK | GRAMGFFDS the result was nd (0 of 6 replicates).
With GVELDEYGIS | VIYADGRRRFYADDVK | GNDIGGFDL the result was nd (0 of 6 replicates).
With GLTLNSYGIS | VIYSDGRRTFYSDSVK | GRAGGTFDS the result was 2.31 (3 of 6 replicates).
With GFPLNSYGIS | VIYSDGRRTFYGDSVK | GMLAGTFDS the result was 1.36 (6 of 6 replicates).
With GFDLEDYGIS | VIYADGMRTAYSDSVK | GQVAGTFDV the result was -0.41 (6 of 6 replicates).
With HFDLNSYGIS | VIYSDGRRTFYDDSVK | GRTAGTFDS the result was 0.28 (6 of 6 replicates).
With GFDLNEYGIS | VIYADGLRTAYADSVK | GNNAGTFDI the result was -0.37 (6 of 6 replicates).
With GFTLNDYGIS | VIYSDGRRTFYGDSVK | GRKAGTFDS the result was 1.59 (6 of 6 replicates).
With GFDLNEYGIS | VIYADGRRTFYVDSVK | GEVAGTFDV the result was -0.66 (6 of 6 replicates).
With GFLLNDYGIS | VIYSDGRRTFYDDSVK | GRAAGTFDS the result was 1.39 (1 of 6 replicates).

Continued, with the values leading:

nd (0 of 6 replicates): GFDLDEYGIS | VIYADGKRTAYIDSVK | GNVAGTFDT.
0.81 (6 of 6 replicates): GFTLNEYGIS | VIYSDGRRTFYHDSVK | GRDAGTFDS.
-0.33 (6 of 6 replicates): GFDLNEYGIS | VIYADGVRTVYADSVK | GEVAGTFDV.
-0.82 (6 of 6 replicates): GFDLNEYGIS | VIYADGKRTFYSDSVK | GNVAGTFDS.
nd (0 of 6 replicates): GFGLSEYGIS | VIYADGVRASYADNVK | GFNYGQDIL.
-0.38 (6 of 6 replicates): GFDLNEYGIS | VIYADGMRTAYVDSVK | GNNAGTFDQ.
nd (0 of 6 replicates): KFTLNDYGIS | VINSDGRRTFYGDSVK | GRAALTSIS.
0.88 (5 of 6 replicates): GFWLNDYGIS | VIYADGRRTFYGDSVK | GNAAGTFDS.
1.12 (4 of 6 replicates): GFTLNNYGIS | VIYSDGRRTAYQDSVK | GRAAGTFDS.
0.57 (5 of 6 replicates): GFELNEYGIS | VIYSDGRRTFYGDSVK | GRHAGTFDT.
0.57 (6 of 6 replicates): GFTLNSYGIS | VIYSDGLRTFYADSVK | GRTAGTFDS.
-0.56 (6 of 6 replicates): GFDLNEYGIS | VIYADGVRTAYADKVK | GGNAGTFDV.
0.83 (5 of 6 replicates): GFDLGEFGIS | VIYADGMRTAYSDAVK | GTFSGTLDV.
nd (0 of 6 replicates): GFALNSYGIS | VIYSDGRRTFYGDSVK | GRAQGTTDS.
-0.48 (6 of 6 replicates): GFDLNEYGIS | VIYADGMRTFYADSVK | GNTAGTFDS.
2.45 (3 of 6 replicates): GETLNSYGIS | VIYSDGRRTFYGDDVK | GRAAGTFDS.
1.13 (1 of 6 replicates): GFILNSYGIS | VIYSDGRRTFYGDSVK | GQLAGTFDS.
1.20 (6 of 6 replicates): SFNLNSYGIS | VIYSDGRRTFYADSVK | GRQAGTFDS.
nd (0 of 6 replicates): GFQLNDYGIS | VIYSDGRRTFYGDSVK | GRVAGTFIS.

The last 4 entries again:

The variant GETLNSYGIS | VIYSDGRRTFYGDDVK | GRAAGTFDS showed 2.45 (3 of 6 replicates).
The variant GFILNSYGIS | VIYSDGRRTFYGDSVK | GQLAGTFDS showed 1.13 (1 of 6 replicates).
The variant SFNLNSYGIS | VIYSDGRRTFYADSVK | GRQAGTFDS showed 1.20 (6 of 6 replicates).
The variant GFQLNDYGIS | VIYSDGRRTFYGDSVK | GRVAGTFIS showed nd (0 of 6 replicates).

The range of this assay differs from that of the first round, and the authors advise against merging the two.
The authors averaged sequences with at least three values out of six and counted those with two or fewer as poor binders.